Source: BindingDB's records for doi:10.7270/Q2FN14KV (Burnham Center For Chemical Genomics, 2009)

Sequences of proteins named here, by UniProt entry; tags and fusion partners are left off.
UniProt P98170, whole entry: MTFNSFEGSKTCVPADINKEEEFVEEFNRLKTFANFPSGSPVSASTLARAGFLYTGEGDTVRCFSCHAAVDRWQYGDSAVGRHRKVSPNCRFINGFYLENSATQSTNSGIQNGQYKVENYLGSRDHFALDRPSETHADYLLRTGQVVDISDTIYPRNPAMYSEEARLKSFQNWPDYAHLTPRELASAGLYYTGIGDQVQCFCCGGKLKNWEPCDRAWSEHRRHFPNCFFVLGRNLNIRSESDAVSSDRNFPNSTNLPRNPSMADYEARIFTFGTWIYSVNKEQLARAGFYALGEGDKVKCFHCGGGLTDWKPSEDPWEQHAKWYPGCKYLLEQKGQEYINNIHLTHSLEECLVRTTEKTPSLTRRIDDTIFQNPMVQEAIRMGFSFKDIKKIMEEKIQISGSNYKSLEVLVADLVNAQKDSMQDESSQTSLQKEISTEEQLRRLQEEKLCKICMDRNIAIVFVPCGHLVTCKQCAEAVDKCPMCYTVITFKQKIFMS

Biological target: E3 ubiquitin-protein ligase XIAP (Homo sapiens, UniProt P98170)
Experiment: SAR analysis of Antagonists of IAP-family anti-apoptotic proteins
Text: Compounds are either acquired from commercial sources or synthesized internally.

IC50: 16.8 µM
SMILES: CNC(C)C(=O)NC(C(=O)N1CCCC1C(=O)NC(C(=O)NCCCCCNC(=O)C(NC(=O)C1CCCN1C(=O)C(NC(=O)C(C)NC)C1CCCCC1)C(c1ccccc1)c1ccccc1)C(c1ccccc1)c1ccccc1)C1CCCCC1 (stereo unspecified) [MLS-0390866.0001]
